Assay results taken from patent US20140248641A1, “CLONED GLUCAGON-LIKE PEPTIDE-2 RECEPTORS” (NPS PHARMACEUTICALS, INC., priority 1997, published 2014).

The chains behind the UniProt entries cited, without tags or fusion partners. Residues count along the entry.
UniProt P43220, 24-463, species assumed: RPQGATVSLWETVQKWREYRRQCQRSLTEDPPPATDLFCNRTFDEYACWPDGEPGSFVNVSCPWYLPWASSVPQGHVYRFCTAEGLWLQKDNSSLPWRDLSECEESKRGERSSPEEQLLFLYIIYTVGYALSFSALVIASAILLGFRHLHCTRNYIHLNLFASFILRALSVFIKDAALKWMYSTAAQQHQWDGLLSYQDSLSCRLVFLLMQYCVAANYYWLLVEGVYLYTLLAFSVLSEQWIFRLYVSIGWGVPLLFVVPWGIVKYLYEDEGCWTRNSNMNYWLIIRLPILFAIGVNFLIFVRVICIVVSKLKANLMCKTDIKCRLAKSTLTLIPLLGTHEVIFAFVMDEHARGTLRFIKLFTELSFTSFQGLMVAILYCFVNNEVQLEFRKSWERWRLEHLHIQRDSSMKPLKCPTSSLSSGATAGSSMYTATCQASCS

Molecular target: GLP-1 receptor (Homo sapiens, UniProt P43220)
Assay: similar functional assay with the GLP-1 receptor
Format: cell-based
Protocol: The functional assay was performed as follows: cAMP content for each extract was determined in duplicate by EIA (Enzyme ImmunoAssay) using the Amersham Biotrak cAMP EIA Kit (Amersham 225).

With GLP-1 (7-36) amide the “specificity at the GLP-1 receptor (functional assay)” value was “expected specificity for GLP-1 was observed”.
